Source: EP0151577B1, “NEW GLUCIDIC DERIVATIVES OF 5-HYDROXYTRYPTOPHANE, OBTENTION AND APPLICATION AS DRUGS” (priority 1983, dated 1984)

Assays:
souris [1] = experiment: Anti-stress activity: milk-induced leucocytosis; type: in vivo; details: 100 mg/kg i.p.; 0,1 ml de lait s.c. before treatment; lait seulement 23866 ± 214
[2] = system: 5-HT (dans tout le cerveau); experiment: Amount of serotonin (5-HT) in whole brain, spectrophotofluorometric; type: in vivo, souris; details: 100 mg/kg i.p.
Source text: On a encore effectué des essais pour apprecier la quantite de serotonine (5-HT) libérée dans le cerveau lors de I'administration des produits de l'invention par comparaison aux résultats obtenus avec le 5-HTP. Les quantités de sérotonine ont été estimees par une méthode spectrophotofluorométrique, telle que décrite par Solomon et al. Biochem. Pharmacology 14, 831 (1965). Les résultats de ces essais sont rassemblés dans le Tableau 10 ci-après.
• * Chaque valeur représente la moyenne de quatre animaux d'experience (souris) • ** La concentration de 5-HT est exprimée par gramme de tissu frais (cerveau).

rat = experiment: Anti-stress activity: restraint ulcer in the rat; type: in vivo; details: 100 mg/kg i.p.
Source text: BONFILS, S., LIEFOOGHE, GK, ROSSI, G. and LAMBLING, A. L'ulcère de contrainte du Rat blanc. Modifications de la fréquence lesionnelle par différents precedes opératoires et pharmacodynamiques. C.R. Soc. Biol., 151, 1149, 1957.
BONFILS, S., ROSSI, G., LIEFOOGHE, G. and LAMBLING, A., Ulcère experimental de contrainte, I. Méthodes, fréquence des lesions, modifications par certains precedes techniques et pharmacologiques. Rev. franç. Etudes clin. biol., 4,146, 1959.

souris [3] = experiment: Rotarod test

N[C@@H](Cc1c[nH]c2ccc(O)cc12)C(=O)O [5-HTP, 5-hydroxytryptophane]
Effet sur la leu-cocytose induite par le lait Moyenne T.L.C./Cmm (souris [1]): 10100 ± 68 (10) /Cmm
Quantités de 5-HT (dans tout le cerveau) ([2]; 15 min., Solution Saline 60,0, mean of 4 souris): 187,5
Quantités de 5-HT (dans tout le cerveau) ([2]; 30 min., par gramme de tissu frais, Solution Saline 107): 248,6
Quantités de 5-HT (dans tout le cerveau) ([2]; 60 min., par gramme de tissu frais, Solution Saline 100): 150,9
Effet anti-ulcère chez le rat (18 heures sous contrainte) Indice d'Ul-cération (rat; témoin 34): 30 (4)
Effet anti-ulcère chez le rat (18 heures sous contrainte) % Ul-cération (rat; témoin 90): 100%
Essai à la tige Rotarod: Défaut de coordination musculaire observé (Nbre de souris) (souris [3]; 50 mg/kg (ip), 15 min): 1/5
Essai à la tige Rotarod: Défaut de coordination musculaire observé (Nbre de souris) (souris [3]; 50 mg/kg (ip), 30 min): 1/5
Essai à la tige Rotarod: Défaut de coordination musculaire observé (Nbre de souris) (souris [3]; 50 mg/kg (ip), 60 min): 0/5
Essai à la tige Rotarod: Défaut de coordination musculaire observé (Nbre de souris) (souris [3]; 100 mg/kg (ip), 15 min): 4/5
Essai à la tige Rotarod: Défaut de coordination musculaire observé (Nbre de souris) (souris [3]; 100 mg/kg (ip), 30 min): 3/5
Essai à la tige Rotarod: Défaut de coordination musculaire observé (Nbre de souris) (souris [3]; 100 mg/kg (ip), 60 min): 3/5
